Reference: patent publication US4607114A, “Novel platinum complexes” (Nippon Kayaku Kabushiki Kaisha, priority 1983, dated 1986)

In the case of `CCC(C(=O)[O-])C(=O)[O-].NCC1(N)CCCC1.[Pt+2]` [compound 22, cis-2-Ethylmalonato-1-amino-1-aminomethylcyclopentane platinum], the Solubility in water is reported as over 50 mg/mL.
`NCC1(N)CCCC1.[OH][Pt]([OH])([Cl])[Cl]` [compound 19, cis-Dichloro-trans-dihydroxy-1-amino-1-aminomethylcyclopentane platinum] gave a Solubility in water of over 10 mg/mL.
`NCC1(N)CCCC1.[Cl][Pt][Cl]` [compound 18, cis-Dichloro-1-amino-1-aminomethylcyclopentane platinum] showed a Solubility in water of over 3 mg/mL.
`CC(C)(N)CN.[OH][Pt]([OH])([Cl])[Cl]` [compound 2, cis-Dichloro-trans-dihydroxy-1,2-diamino-2-methylpropane platinum] gave a Solubility in water of over 20 mg/mL.
